34 molecules from US20050137128 (published 2005) can be followed below.

The Kd is the equilibrium constant for the complex coming apart. Read a low Kd as tighter binding.

What all share (experiment): other, fibril binding
Assay [1] has as its target Aβ1-40 fibril (Homo sapiens).
Assay [2] concerns the target Aβ1-40 fibril (Homo sapiens). This is another data set of the same source.
Assay [3] concerns the target Aβ1-40 fibril (Homo sapiens). The source holds these as a separate data set.

Where “and” joins values, the source holds several entries; their conditions need not be identical. Equal values may be shown once. Read-outs that look alike come from different tables or passages of the source.

B1: PPI-1018 (peptide)
chain: GLFVL
modifications: D-residues (Gly achiral), N-ethyl, C-terminal amide; sequence as printed
For the molecule B1, the Kd in the assay with Aβ1-40 fibril [1] amounted to 0.701 nM.

B2: PPI-1019 (peptide)
chain: LVFFL
modifications: all D-residues, N-methyl, C-terminal amide
Take B2: in the assay with Aβ1-40 fibril [2], the Kd was 0.411 nM and 0.534 nM.

B3: PPI-1028 (peptide)
chain: GLVFFL
modifications: D-residues (Gly achiral), N,N-diethyl, C-terminal amide
The molecule B3 gave a Kd in the assay with Aβ1-40 fibril [1] of 0.49 nM.

B4: PPI-1020 (peptide)
chain: LFFVL
modifications: all D-residues, N-methyl, C-terminal amide
B4 yielded a Kd with Aβ1-40 fibril [1] of 0.601 nM.

B5: PPI-1261 (peptide)
chain: LVFFL
modifications: all D-residues, free acid
In turn, B5 gave an equilibrium dissociation constant (Kd) with Aβ1-40 fibril [1] of 11.2 nM.

B6: PPI-1038 (peptide)
chain: IVFFI
modifications: all D-residues, C-terminal amide
In turn, B6 registered a Kd with Aβ1-40 fibril [1] of 0.652 nM.

B7: PPI-1303 (peptide)
chain: LVFFL
modifications: all D-residues, pentafluoro-D-Phe at position 4, C-terminal amide
Consider B7, for which the Kd in the assay with Aβ1-40 fibril [2] worked out at 1.1 nM.

B8: PPI-1302 (peptide)
chain: LVFFL
modifications: all D-residues, p-fluoro-D-Phe at position 4, C-terminal amide
Molecule B8 showed a Kd with Aβ1-40 fibril [2] of 0.22 nM.

B9: PPI-1785 (peptide)
chain: LVFFL
modifications: all D-residues, p-fluoro-D-Phe at position 3, C-terminal amide
The molecule B9 yielded a Kd with Aβ1-40 fibril [3] of 2.8 nM. In other words, the single-digit nanomolar range.

B10: PPI-1320 (peptide)
chain: LFFVL
modifications: all D-residues, pentafluoro-D-Phe at position 3, C-terminal amide
In the assay with Aβ1-40 fibril [2], B10 had a Kd of 1.4 nM.

B11: PPI-1039 (peptide)
chain: IVFFA
modifications: all D-residues, C-terminal amide
B11 returned a Kd with Aβ1-40 fibril [1] of 2.44 nM.

B12: PPI-1155 (peptide)
chain: LVF
modifications: all D-residues, C-terminal hydrazide
In the case of B12, binding with Aβ1-40 fibril [2] was characterised by a dissociation constant (Kd) of 124 nM.

B13: PPI-1017 (peptide)
chain: GLVFFL
modifications: D-residues (Gly achiral), N-ethyl, C-terminal amide
B13: binding with Aβ1-40 fibril [1] was characterised by a dissociation constant (Kd) of 0.389 nM.

B14: PPI-1125 (peptide)
chain 1: LVF
chain 2: LVF
modifications: all D-residues, H-lvf-NH-NH-fvl-H, hydrazide-linked dimer
As for B14, the Kd in the assay with Aβ1-40 fibril [2] was 1.27 nM and 1.34 nM.

B15: PPI-1325 (peptide)
chain: LKFVL
modifications: all D-residues, C-terminal amide
B15 gave a Kd in the assay with Aβ1-40 fibril [2] of 1.4 nM.

B16: PPI-1013 (peptide)
chain: GLVFFL
modifications: D-residues (Gly achiral), C-terminal amide
As to B16, the Kd in the assay with Aβ1-40 fibril [1] turned out to be 0.247 nM.

B17: PPI-1089 (peptide)
chain: LFFVL
modifications: all D-residues, 1-piperidine-acetyl, C-terminal amide
The molecule B17 showed a Kd in the assay with Aβ1-40 fibril [1] of 0.57 nM. Compared with the last molecule, the Kd is about 2.3-fold higher.

B18: PPI-1327 (peptide)
chain: LFFVL
modifications: all D-residues, p-fluoro-D-Phe at positions 2 and 3, C-terminal amide
Molecule B18 registered a Kd in the assay with Aβ1-40 fibril [2] of 0.82 nM.

B19: PPI-1465 (peptide)
chain: LVFFL
modifications: all D-residues, C-terminal NH-CH2CH2-NH2
Molecule B19 gave a Kd in the assay with Aβ1-40 fibril [3] of 3.6 nM. That is a single-digit nanomolar value.

B20: PPI-1093 (peptide)
chain: LVFFL
modifications: all D-residues, C-terminal isopropylamide
In the assay with Aβ1-40 fibril [1], B20 displayed a Kd of 1.02 nM.

B21: PPI-1007 (peptide)
chain: LVFFL
modifications: all D-residues, N,N-dimethyl, C-terminal amide
Take B21: in the assay with Aβ1-40 fibril [1], the Kd was 0.627 nM and 0.864 nM.

B22: PPI-1784 (peptide)
chain: LVFFL
modifications: all D-residues, N-methyl, p-fluoro-D-Phe at position 3, C-terminal amide
Regarding B22, in the assay with Aβ1-40 fibril [3], the Kd is 2.5 nM.

B23: PPI-969 (peptide)
chain: GAFFVL
modifications: D-residues (Gly achiral), N-ethyl, C-terminal amide
With B23, in the assay with Aβ1-40 fibril [1], the affinity, expressed as Kd, was 1.13 nM.

B24: PPI-1022 (peptide)
chain: LVFFL
modifications: all D-residues, N-ethyl, C-terminal amide
For the molecule B24, in the assay with Aβ1-40 fibril [1], the Kd turned out to be 0.15 nM.

B25: PPI-1133 (peptide)
chain: LVF
modifications: all D-residues, C-terminal NH-NH-acetyl
For B25, in the assay with Aβ1-40 fibril [2], the Kd is 318 nM. This lies in the sub-micromolar range.

B26: PPI-1040 (peptide)
chain: IIFFI
modifications: all D-residues, C-terminal amide
The molecule B26 displayed a Kd in the assay with Aβ1-40 fibril [1] of 0.408 nM.

B27: PPI-1025 (peptide)
chain: LVFFL
modifications: all D-residues, N-propyl, C-terminal amide
As for B27, the Kd with Aβ1-40 fibril [1] was 0.43 nM.

B28: PPI-1180 (peptide)
chain: LFFVL
modifications: all D-residues, C-terminal methylamide
In the assay with Aβ1-40 fibril [1], B28 showed an equilibrium dissociation constant (Kd) of 0.33 nM.

B29: PPI-1328 (peptide)
chain: LFFVL
modifications: all D-residues, pentafluoro-D-Phe at positions 2 and 3, C-terminal amide
Molecule B29 registered a Kd in the assay with Aβ1-40 fibril [2] of 2.4 nM. This counts as single-digit nanomolar.

B30: PPI-1179 (peptide)
chain: LVFFL
modifications: all D-residues, C-terminal methylamide
Turning to B30, binding with Aβ1-40 fibril [1] was characterised by a dissociation constant (Kd) of 0.604 nM.

B31: PPI-1088 (peptide)
chain: LVFFL
modifications: all D-residues, 1-piperidine-acetyl, C-terminal amide
In the assay with Aβ1-40 fibril [1], B31 gave a Kd of 3.4 nM. Against the preceding molecule, the Kd is about 5.6-fold higher.

B32: PPI-1008 (peptide)
chain: LFFVL
modifications: all D-residues, N,N-dimethyl, C-terminal amide
B32 had a Kd in the assay with Aβ1-40 fibril [1] of 1.75 nM.

B33: PPI-992 (peptide)
chain: LVFFA
modifications: all D-residues, C-terminal isopropylamide
As for B33, the Kd with Aβ1-40 fibril [1] was 2.43 nM.

B34: PPI-1094 (peptide)
chain: LFFVL
modifications: all D-residues, C-terminal isopropylamide
As to B34, the Kd with Aβ1-40 fibril [1] was determined as 3.7 nM.
